Measurements published in ChEMBL document CHEMBL4270596, “Discovery of a potent non-oxime reactivator of nerve agent inhibited human acetylcholinesterase” (2018).
pIC50, pKi: −log10 of the molar value.

Assays:
Acetylcholinesterase [1] = molecular target: T1, Acetylcholinesterase (Homo sapiens, UniProt P22303); experiment: Non-competitive inhibition of recombinant human AChE using varying levels of acetylthiocholine as substrate
Acetylcholinesterase [2] = molecular target: T1, Acetylcholinesterase; experiment: Non-competitive inhibition of AChE in human erythrocytes using varying levels of acetylthiocholine as substrate measured for 1 min by Lineweaver-burk plot analysis
Acetylcholinesterase [3] = molecular target: T1, Acetylcholinesterase; experiment: Competitive inhibition of recombinant human AChE using varying levels of acetylthiocholine as substrate
Acetylcholinesterase [4] = molecular target: T1, Acetylcholinesterase; experiment: Inhibition of AChE in human erythrocytes using acetylthiocholine as substrate measured for 1 min
Acetylcholinesterase [5] = molecular target: T1, Acetylcholinesterase; experiment: Inhibition of recombinant human AChE using acetylthiocholine as substrate by DTNB reagent based assay
Acetylcholinesterase [6] = molecular target: T1, Acetylcholinesterase; experiment: Competitive inhibition of AChE in human erythrocytes using varying levels of acetylthiocholine as substrate measured for 1 min by Lineweaver-burk plot analysis
Acetylcholinesterase [7] = molecular target: T1, Acetylcholinesterase; experiment: Inhibition of AChE in human erythrocyte membranes at <= 100 uM using acetylthiocholine as substrate measured after 2 to 60 mins by Ellman's method; conditions: erythrocytes
Acetylcholinesterase [8] = molecular target: T1, Acetylcholinesterase; experiment: Inhibition of AChE in human erythrocyte membranes at 1000 uM using acetylthiocholine as substrate measured after 2 to 60 mins by Ellman's method; conditions: erythrocytes

Compound `CCN(CC)Cc1cc(N)ccc1O` has a pKi (Acetylcholinesterase [1]) of 4.43, a pKi (Acetylcholinesterase [2]) of 4.42 and a pKi (Acetylcholinesterase [3]) of 5.20. The pIC50 (Acetylcholinesterase [4]) was 4.32, the pIC50 (Acetylcholinesterase [5]) was 4.75 and the pKi (Acetylcholinesterase [6]) was 4.80.

Work on `Nc1ccc(O)c(CN2CCCC2)c1` yielded a pKi (Acetylcholinesterase [2]) of 5.48, a pIC50 (Acetylcholinesterase [4]) of 5.20 and a pKi (Acetylcholinesterase [6]) of 5.11.

For `CCN(CC)Cc1cc(N)ccc1O.Cl.Cl`, the “inhibition (INH)” value (Acetylcholinesterase [7]) was “Not Active” and the “inhibition (INH)” value (Acetylcholinesterase [8]) was “Active”.

In the case of `Cl.Cl.Nc1ccc(O)c(CN2CCCC2)c1`, the “inhibition (INH)” value (Acetylcholinesterase [7]) was “Not Active” and the “inhibition (INH)” value (Acetylcholinesterase [8]) was “Active”.
